Values of other authors, collected in US20100004187A1 (priority 2008, published 2010).

Protein sequences, listed by entry. Tags and fused reporters are not part of them. Residues count along the entry.
UniProt P02930, 23-493: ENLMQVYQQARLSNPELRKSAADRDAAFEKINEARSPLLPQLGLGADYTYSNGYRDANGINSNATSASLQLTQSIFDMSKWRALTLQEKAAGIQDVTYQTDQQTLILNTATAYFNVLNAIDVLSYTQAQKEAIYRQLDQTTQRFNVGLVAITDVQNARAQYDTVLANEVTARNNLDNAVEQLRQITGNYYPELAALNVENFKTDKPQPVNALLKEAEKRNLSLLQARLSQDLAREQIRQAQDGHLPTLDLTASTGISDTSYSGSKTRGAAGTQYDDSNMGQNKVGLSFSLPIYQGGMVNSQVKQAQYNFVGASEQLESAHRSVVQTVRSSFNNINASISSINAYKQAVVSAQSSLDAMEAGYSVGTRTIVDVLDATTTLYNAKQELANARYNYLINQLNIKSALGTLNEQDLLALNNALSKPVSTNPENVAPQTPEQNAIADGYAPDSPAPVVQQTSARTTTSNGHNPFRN

Biological target: TolC (E. coli) (Escherichia coli, UniProt P02930)
Details: read-out: binding affinity; isothermal titration calorimetry; cited from earlier work

Q: Which Kd does the source give for hexamminecobalt (III) chloride [Cohex] here?
A: 20 nM
